The record followed here is patent US11584745B2, “Aromatic heterocyclic compound, intermediate thereof, preparation method therefor, and pharmaceutical composition and use thereof” (SHANGHAI YINGLI PHARMACEUTICAL CO., LTD, priority 2018, dated 2023).

Protein sequences, listed by entry. Tags and fused reporters are not part of them. Residues count along the entry.
UniProt P36897, 34-503 limits assumed: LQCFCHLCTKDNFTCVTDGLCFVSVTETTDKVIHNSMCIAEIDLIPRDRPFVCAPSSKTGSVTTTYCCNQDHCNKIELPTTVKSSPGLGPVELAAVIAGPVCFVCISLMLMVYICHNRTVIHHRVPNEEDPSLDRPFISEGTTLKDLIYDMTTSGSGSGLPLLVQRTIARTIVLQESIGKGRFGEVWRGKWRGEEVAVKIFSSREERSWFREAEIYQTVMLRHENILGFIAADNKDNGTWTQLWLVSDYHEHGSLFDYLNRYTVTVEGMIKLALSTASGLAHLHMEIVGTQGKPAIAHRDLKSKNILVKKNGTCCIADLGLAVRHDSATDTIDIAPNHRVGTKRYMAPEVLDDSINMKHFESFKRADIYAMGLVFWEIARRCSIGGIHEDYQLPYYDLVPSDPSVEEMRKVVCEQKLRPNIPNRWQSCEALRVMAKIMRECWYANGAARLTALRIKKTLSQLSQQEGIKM

The target in the test is ALK5 (Homo sapiens (Human), UniProt P36897). Put plainly: Evaluation experiment of ALK5 enzyme activity inhibition IC50 (ADP-Glo kinase assay). The test is classed as biochemical. The note with it: read-out: ALK5 IC50; 25 nM ALK5, 0.1 mg/mL peptide TGFbR1, 7 μM ATP, 30° C. 1 hour, ADP-Glo luminescence. On the technique in general: In ADP-Glo the light output rises with the ADP produced.

pIC50: −log10 of the molar value.

The term pIC50 denotes the IC50 on a negative log10 scale, so that one unit is a factor of ten. For the compound `N#Cc1cnc2ccc(-n3cncc3-c3cccc(C(F)(F)F)n3)cn12`, the pIC50 was below 5.00.
